Measured values: US20210071139A1

biological target: TOX (UniProt Q66JW3); experiment: anti-TOX IP from EL4 cells, mass spectrometry, MiST analysis

In order of rising Abundance:
1. Paf1 (from UniProt Q8K2T8 1-535)  9.64e-06
2. Rpl3 (from UniProt P27659 1-403)  0.000661
3. Rpl5 (from UniProt P47962 2-297)  0.00103
4. Rpl8 (from UniProt P62918 1-257)  0.00354
5. Rpl13 (from UniProt P47963 1-211)  0.00376
6. Rpl7a (from UniProt P12970 1-266)  0.00461

In order of rising MiST Score:
1. Paf1 (from UniProt Q8K2T8 1-535)  0.798
2. Rpl7a (from UniProt P12970 1-266)  0.798
3. Rpl5 (from UniProt P47962 2-297)  0.799
4. Rpl13 (from UniProt P47963 1-211)  0.801
5. Rpl8 (from UniProt P62918 1-257)  0.809
6. Rpl3 (from UniProt P27659 1-403)  0.815

In order of rising Reproducibility:
1. Paf1 (from UniProt Q8K2T8 1-535)  0.573
2. Rpl7a (from UniProt P12970 1-266)  0.888
3. Rpl3 (from UniProt P27659 1-403)  0.924
4. Rpl13 (from UniProt P47963 1-211)  0.953
5. Rpl5 (from UniProt P47962 2-297)  0.984
6. Rpl8 (from UniProt P62918 1-257)  0.995

In order of falling Specificity:
1. Paf1 (from UniProt Q8K2T8 1-535)  0.907
2. Rpl3 (from UniProt P27659 1-403)  0.773
3. Rpl7a (from UniProt P12970 1-266)  0.764
4. Rpl13 (from UniProt P47963 1-211)  0.739
5. Rpl8 (from UniProt P62918 1-257)  0.733
6. Rpl5 (from UniProt P47962 2-297)  0.723

biological target: TOX (UniProt Q66JW3); experiment: anti-TOX IP from EL4 nuclear extract, LC-MS/MS, MiST vs IgG control

In order of rising Abundance:
1. Leo1 (from UniProt Q5XJE5 2-667)  7.69e-06
2. Rpl10; Rpl10l (from UniProt Q6ZWV3 1-214)  0.00109
3. Rpl23 (from UniProt P62830 1-140)  0.0029
4. Rpl6 (from UniProt P47911 1-296)  0.00317
5. Hist1h3i; Hist1h3a; H3f3a (from UniProt P68433 2-136)  0.004

In order of rising MiST Score:
1. Hist1h3i; Hist1h3a; H3f3a (from UniProt P68433 2-136)  0.752
2. Rpl10; Rpl10l (from UniProt Q6ZWV3 1-214)  0.752
3. Rpl23 (from UniProt P62830 1-140)  0.756
4. Rpl6 (from UniProt P47911 1-296)  0.759
5. Leo1 (from UniProt Q5XJE5 2-667)  0.76

In order of falling Reproducibility:
1. Rpl23 (from UniProt P62830 1-140)  0.994
2. Leo1 (from UniProt Q5XJE5 2-667)  0.974
3. Rpl6 (from UniProt P47911 1-296)  0.973
4. Hist1h3i; Hist1h3a; H3f3a (from UniProt P68433 2-136)  0.95
5. Rpl10; Rpl10l (from UniProt Q6ZWV3 1-214)  0.944

In order of rising Specificity:
1. Rpl23 (from UniProt P62830 1-140)  0.655
2. Rpl6 (from UniProt P47911 1-296)  0.669
3. Hist1h3i; Hist1h3a; H3f3a (from UniProt P68433 2-136)  0.67
4. Leo1 (from UniProt Q5XJE5 2-667)  0.671
5. Rpl10; Rpl10l (from UniProt Q6ZWV3 1-214)  0.673

biological target: TOX (UniProt Q66JW3); experiment: TOX co-IP from EL4 nuclear extract, LC-MS/MS, MiST

In order of falling Abundance:
1. Rpl28 (from UniProt P41105 2-137)  0.0019
2. Mrto4 (from UniProt Q9D0I8 1-239)  0.000166
3. Tceb1 (from UniProt P83940 1-112)  0.00012
4. Polr2b (from UniProt Q8CFI7 1-1174)  7.04e-07
5. Supt6h (from UniProt Q62383 2-1726)  2.72e-07

In order of rising MiST Score:
1. Polr2b (from UniProt Q8CFI7 1-1174)  0.835
2. Rpl28 (from UniProt P41105 2-137)  0.835
3. Supt6h (from UniProt Q62383 2-1726)  0.847
4. Tceb1 (from UniProt P83940 1-112)  0.848
5. Mrto4 (from UniProt Q9D0I8 1-239)  0.849

In order of falling Reproducibility:
1. Mrto4 (from UniProt Q9D0I8 1-239)  0.997
2. Rpl28 (from UniProt P41105 2-137)  0.981
3. Tceb1 (from UniProt P83940 1-112)  0.95
4. Supt6h (from UniProt Q62383 2-1726)  0.524
5. Polr2b (from UniProt Q8CFI7 1-1174)  0.486

In order of rising Specificity:
1. Rpl28 (from UniProt P41105 2-137)  0.777
2. Mrto4 (from UniProt Q9D0I8 1-239)  0.79
3. Tceb1 (from UniProt P83940 1-112)  0.809
4. Polr2b (from UniProt Q8CFI7 1-1174)  1
5. Supt6h (from UniProt Q62383 2-1726)  1

biological target: TOX (UniProt Q66JW3); experiment: anti-TOX IP from EL4 nuclear extract, LC-MS/MS, MiST analysis

In order of rising Abundance:
1. Acaca (from UniProt Q5SWU9 1-2345) (enzyme)  2.64e-07
2. Gtpbp4 (from UniProt Q99ME9 2-634)  4.52e-05
3. Polb (from UniProt Q8K409 1-335) (enzyme)  8.62e-05
4. Rpl32 (from UniProt P62911 1-135)  0.00013
5. Rps24 (from UniProt P62849 1-133)  0.00147
6. Rpl26 (from UniProt P61255 1-145)  0.00499
7. Rpl21 (from UniProt O09167 1-160)  0.00566
8. Rpl34; Gm2178 (from UniProt Q9D1R9 1-117)  0.00658

In order of falling MiST Score:
1. Rpl26 (from UniProt P61255 1-145)  0.783
2. Rpl32 (from UniProt P62911 1-135)  0.783
3. Rpl21 (from UniProt O09167 1-160)  0.778
4. Polb (from UniProt Q8K409 1-335) (enzyme)  0.776
5. Acaca (from UniProt Q5SWU9 1-2345) (enzyme)  0.775
6. Gtpbp4 (from UniProt Q99ME9 2-634)  0.775
7. Rpl34; Gm2178 (from UniProt Q9D1R9 1-117)  0.768
8. Rps24 (from UniProt P62849 1-133)  0.767

In order of rising Reproducibility:
1. Acaca (from UniProt Q5SWU9 1-2345) (enzyme)  0.29
2. Rpl32 (from UniProt P62911 1-135)  0.315
3. Rpl34; Gm2178 (from UniProt Q9D1R9 1-117)  0.937
4. Gtpbp4 (from UniProt Q99ME9 2-634)  0.968
5. Rpl26 (from UniProt P61255 1-145)  0.983
6. Polb (from UniProt Q8K409 1-335) (enzyme)  0.986
7. Rps24 (from UniProt P62849 1-133)  0.996
8. Rpl21 (from UniProt O09167 1-160)  0.997

In order of falling Specificity:
1. Acaca (from UniProt Q5SWU9 1-2345) (enzyme)  1
2. Rpl32 (from UniProt P62911 1-135)  1
3. Rpl26 (from UniProt P61255 1-145)  0.7
4. Rpl34; Gm2178 (from UniProt Q9D1R9 1-117)  0.699
5. Gtpbp4 (from UniProt Q99ME9 2-634)  0.695
6. Polb (from UniProt Q8K409 1-335) (enzyme)  0.689
7. Rpl21 (from UniProt O09167 1-160)  0.687
8. Rps24 (from UniProt P62849 1-133)  0.671
